Test results: article PMC3469775 (Journal of medicinal chemistry, 2012)

What follows are molecules tested on MCF-7-Tet-off-3βHSD1-Arom (MCF-7a) cells (assay: Stimulation of growth of MCF-7a cells by E2, TST and ASD). Conditions: Homo sapiens, MCF7a, read-out: EC50 of growth stimulation.
Assay type: cell-based
`C[C@]12CCC(=O)C=C1CC[C@@H]1[C@@H]2CC[C@]2(C)C(=O)CC[C@@H]12` [ASD, androst-4-ene-3,17-dione] was tested, and the pEC50 was 8.44. `C[C@]12CC[C@@H]3c4ccc(O)cc4CC[C@H]3[C@@H]1CC[C@@H]2O` [E2, 17β-estradiol] was tested, and the pEC50 was 10.26. `C[C@]12CC[C@H]3[C@@H](CCC4=CC(=O)CC[C@@]43C)[C@@H]1CC[C@@H]2O` [TST, testosterone] showed a pEC50 of 10.00.

pEC50: −log10 of the molar value.
